Laboratory results: ChEMBL document CHEMBL5316303, “[1,2,4]Triazolo[3,4-b]benzothiazole Scaffold as Versatile Nicotinamide Mimic Allowing Nanomolar Inhibition of Different PARP Enzymes” (J Med Chem, 2023)

The chains behind the UniProt entries cited, without tags or fusion partners.
UniProt Q460N5, whole entry: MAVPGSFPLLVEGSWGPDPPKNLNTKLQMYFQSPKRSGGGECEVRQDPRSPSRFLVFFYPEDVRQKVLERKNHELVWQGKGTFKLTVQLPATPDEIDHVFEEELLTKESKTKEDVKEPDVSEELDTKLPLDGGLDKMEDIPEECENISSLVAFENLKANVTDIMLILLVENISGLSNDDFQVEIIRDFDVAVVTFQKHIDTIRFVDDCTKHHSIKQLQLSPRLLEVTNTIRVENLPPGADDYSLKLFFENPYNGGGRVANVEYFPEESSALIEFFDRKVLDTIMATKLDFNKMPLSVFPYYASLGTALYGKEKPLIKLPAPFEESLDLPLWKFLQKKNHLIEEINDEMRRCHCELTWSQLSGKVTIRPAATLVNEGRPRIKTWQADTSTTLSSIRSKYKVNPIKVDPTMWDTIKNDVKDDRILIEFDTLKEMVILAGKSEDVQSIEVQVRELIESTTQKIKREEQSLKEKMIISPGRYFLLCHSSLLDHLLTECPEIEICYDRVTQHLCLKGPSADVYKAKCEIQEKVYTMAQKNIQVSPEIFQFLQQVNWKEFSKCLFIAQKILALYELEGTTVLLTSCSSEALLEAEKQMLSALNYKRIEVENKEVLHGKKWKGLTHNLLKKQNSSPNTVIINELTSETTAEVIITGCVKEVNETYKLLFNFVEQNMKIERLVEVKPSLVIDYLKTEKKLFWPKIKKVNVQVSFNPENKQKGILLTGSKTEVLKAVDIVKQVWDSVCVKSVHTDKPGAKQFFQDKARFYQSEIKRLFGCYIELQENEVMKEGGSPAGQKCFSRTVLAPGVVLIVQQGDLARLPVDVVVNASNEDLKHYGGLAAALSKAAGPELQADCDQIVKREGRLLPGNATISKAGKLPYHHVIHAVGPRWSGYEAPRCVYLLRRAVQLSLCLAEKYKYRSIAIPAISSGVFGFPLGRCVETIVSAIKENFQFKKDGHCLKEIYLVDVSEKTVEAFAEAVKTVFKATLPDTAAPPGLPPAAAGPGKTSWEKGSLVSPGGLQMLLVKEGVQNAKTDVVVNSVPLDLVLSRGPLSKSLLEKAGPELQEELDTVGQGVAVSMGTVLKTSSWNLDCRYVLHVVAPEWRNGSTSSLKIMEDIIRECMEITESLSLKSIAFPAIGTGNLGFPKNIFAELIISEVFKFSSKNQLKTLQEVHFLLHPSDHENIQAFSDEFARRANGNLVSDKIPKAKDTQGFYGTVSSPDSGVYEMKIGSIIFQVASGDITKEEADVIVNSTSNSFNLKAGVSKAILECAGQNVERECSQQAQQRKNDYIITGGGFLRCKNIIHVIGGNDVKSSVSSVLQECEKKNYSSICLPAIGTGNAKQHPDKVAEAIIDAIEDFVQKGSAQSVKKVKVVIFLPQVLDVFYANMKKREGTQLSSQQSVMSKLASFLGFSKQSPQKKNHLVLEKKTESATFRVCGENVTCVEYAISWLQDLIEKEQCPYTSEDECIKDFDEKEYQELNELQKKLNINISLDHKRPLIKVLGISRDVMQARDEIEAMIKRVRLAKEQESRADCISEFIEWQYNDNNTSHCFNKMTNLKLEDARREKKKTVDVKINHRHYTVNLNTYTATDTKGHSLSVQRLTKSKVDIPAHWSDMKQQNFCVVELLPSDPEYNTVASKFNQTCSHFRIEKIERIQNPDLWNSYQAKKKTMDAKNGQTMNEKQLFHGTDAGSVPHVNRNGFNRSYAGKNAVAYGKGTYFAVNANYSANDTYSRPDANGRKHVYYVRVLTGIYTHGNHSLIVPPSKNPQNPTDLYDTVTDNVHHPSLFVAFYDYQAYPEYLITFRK

Target: Protein mono-ADP-ribosyltransferase PARP14 (Homo sapiens, UniProt Q460N5)
Assay: Inhibition of N-terminal MBP tagged/C-terminal PARP14 (unknown origin) expressed in Escherichia coli in presence of NAD+

Cc1ccc2c(c1)sc1nncn12
IC50: 1200 nM
